This note sets out measurements from patent US8957083B2, “Spiro-amino-imidazolone and spiro-amino-dihydro-pyrimidinone compounds as beta-secretase modulators and methods of use” (Amgen Inc., priority 2010, dated 2015).

Protein sequences, listed by entry. Tags and fused reporters are not part of them. Residues count along the entry.
UniProt P56817, 46-501: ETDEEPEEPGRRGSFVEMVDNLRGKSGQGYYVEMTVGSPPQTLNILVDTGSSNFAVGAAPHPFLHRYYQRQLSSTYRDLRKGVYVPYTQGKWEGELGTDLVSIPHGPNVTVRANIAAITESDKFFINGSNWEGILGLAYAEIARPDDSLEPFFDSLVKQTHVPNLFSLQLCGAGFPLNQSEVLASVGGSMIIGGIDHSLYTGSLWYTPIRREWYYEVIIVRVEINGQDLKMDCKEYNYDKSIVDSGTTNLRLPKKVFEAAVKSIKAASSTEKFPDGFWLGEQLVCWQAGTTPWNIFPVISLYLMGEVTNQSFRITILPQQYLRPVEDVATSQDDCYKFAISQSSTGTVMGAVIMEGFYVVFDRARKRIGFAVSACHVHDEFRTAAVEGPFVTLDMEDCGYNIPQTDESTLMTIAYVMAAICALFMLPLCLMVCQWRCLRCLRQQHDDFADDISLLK

This experiment concerns the target BACE 1 (Beta Secretase enzyme) (Homo sapiens (Human), UniProt P56817). Nature of the experiment: In vitro enzymatic BACE FRET assay. The experiment is classed as biochemical. The following applies: average IC50; enzyme 0.2 nM, FRET substrate 50 nM, pH 4.2. Here is the method: In Vitro Enzymatic BACE FRET (Fluorescence Resonance Energy Transfer) Assay (Enzyme Assay Data in the Example Table I)
The assay buffer used in this screen is 0.05 M acetate, pH 4.2, 10% DMSO final, 100 uM genapol (which is a nonionic detergent, below its Critical Micelle Concentration). […] This assay is effectively started by the addition of FRET substrate (50 nM) and the combination is incubated for one hour. The FRET assay is terminated with by addition of Tris buffer, which raises the pH to neutrality, and the fluorescence is determined. The FRET substrate is a peptide with commercially available fluorophore and quencher, on opposite sides of the BACE cleavage site. Proteolytic cleavage of the FRET substrate releases quenching of fluorescence (excitation […] and […]).

Turning to `CN1C(=O)C[C@@]2(N=C1N)c1cc(-c3cccnc3F)ccc1Oc1cnc(-c3ccnc(F)c3)cc12` [Example 21-A, (R)-7-(2-Fluoropyridin-3-yl)-3-(2-fluoropyridin-4-yl)-2′-imino-1′-methyl-2′,3′-dihydro-1′H-spiro[chromeno[2,3-c]pyridine-5,4′-pyrimidin]-6′(5′H)-one], the IC50 was found to be 437 nM.
